The values that follow come from patent publication US5602278A (priority 1994, dated 1997).

Data set [1] relates to EMT6 mouse mammary carcinoma cells.
Data set [2] relates to cell lines which lack the levels of reductive enzymes. Particulars: Mann et al., 1991; cited from earlier work.
Data set [3] deals with CaNT murine adenocarcinoma.

With `O=C(O)CCCc1ccc([N+]([O-])(CCCl)CCCl)cc1`, the “toxicity with reducing enzymes under hypoxia” value in data set [1] is reported as “greater toxicity with reducing enzymes under hypoxia”. Moreover, the in vivo toxicity result in the data set “In vivo toxicity” is recorded as “minimal in vivo toxicity”. Moreover, the “preferential toxicity under hypoxia” value in data set [2] is “not preferentially toxic under hypoxia”. In data set [3] (CaNT tumor surviving fraction, FIG. 4B), the “in vivo toxicity to tumor relative to CHL” value is “less toxic than CHL”. In addition, the “potentiation of in vivo cytotoxicity by hydralazine” value in data set [3] (i.p., CHL-HD 200 mg/kg, hydralazine 5 mg/kg) is “can be potentiated by the administration of hydralazine”.
